Experiments:
NRG-1β = experiment: Serial plasma NRG-1β by indirect sandwich ELISA in Her-2+ breast cancer patients receiving doxorubicin and trastuzumab; format: in vivo, human; details: three months of Herceptin exposure
Description: NRG-1β is measured from frozen, previously unthawed serum or plasma samples that had been stored at −80° C. until time of assay. An indirect sandwich enzyme-linked immunosorbent assay (ELISA) was used (NRG1-β1 Duoset ELISA development system from R&D Systems, Minneapolis, Minn.). Assay technology was adapted for human samples, and all measurements were performed at Vanderbilt University. Serum or plasma was applied to plates that had been coated with mouse anti-human NRG1-β1 capture antibody. Following incubation, a biotinylated goat anti-human NRG1-β1 detection antibody was added to each well, and a streptavidin-HRP system was used for detection. The monoclonal antibody used in this assay detects a biologically active NRG-1β peptide fragment that is highly expressed in the cardiovascular system, and that activates the ErbB receptor and downstream signaling pathways in ventricular myocytes in vitro. Extensive validation was performed and there was no cross-reactivity with NRG-1α isoform or epidermal growth factor.
Breast cancer patients receiving doxorubicin followed by trastuzumab were prospectively recruited. […]
NRG-1β plasma level was measured serially every 3 months during chemotherapy treatment. NRG-1β was measured via indirect sandwich ELISA that detects a biologically active peptide sequence highly expressed in cardiac system (CV 5.6-13%).

[1] = ErbB2 (Her-2) positive breast cancers; worsened by anthracyclines; cited from earlier work

Q: For trastuzumab [Herceptin], which “change in NRG-1β” value (NRG-1β) is on record?
A: not associated with a statistically significant change

Q: And the “rate of heart failure and cardiac dysfunction” value [1]?
A: 4-27%

— patent US8962257B2, “Methods for diagnosing heart failure and other cardiac diseases” (The Trustees of the University of Pennsylvania, priority 2010, dated 2015)
